## Apparent affinities of Ab-95 variants for a coronavirus HR2 peptide

Data: MIT Lincoln Laboratory AlphaSeq set, Engelhart et al. 2022, doi:10.1038/s41597-022-01779-4, as distributed in FLAb.

The target is the same throughout: PDVDLGDISGINAS, from the HR2 region of SARS-CoV-2 spike.

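The parent was found by panning a naive human phage display library on the peptide. In library AAYL52, one, two or three CDR residues were substituted; doubles and triples were drawn at random. The assay is AlphaSeq: two haploid yeast populations carry antibody and antigen on their surface. After mating in shaken culture at 30 °C for 16 h, diploids were selected and their barcode pairs sequenced. Read counts were normalised to the haploid input and turned into Kd by a linear fit to BCL2-family pairs of known affinity, for each replicate. Each pool was mated in three replicate cultures.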

Each scFv is VH, a 15-residue (Gly4Ser)3 linker, VL, as in the parent Ab-95, and differs from it in the CDRs of the light chain only.
VH: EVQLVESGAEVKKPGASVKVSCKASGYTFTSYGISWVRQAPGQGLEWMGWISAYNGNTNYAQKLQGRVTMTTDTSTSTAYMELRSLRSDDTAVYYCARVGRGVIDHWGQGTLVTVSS
VL: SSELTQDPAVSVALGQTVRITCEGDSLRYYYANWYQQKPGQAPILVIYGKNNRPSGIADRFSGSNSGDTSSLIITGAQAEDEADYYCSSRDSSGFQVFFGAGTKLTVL

The parent's light chain CDRs are EGDSLRYYYAN, GKNNRPS, SSRDSSGFQVF; each variant's own CDRs replace them letter for letter. This list gathers variants with a substitution at K50 (VL, numbered from residue 1). Numbers give log10(Kd / nM), so 0 is 1 nM and 3 is 1 µM. Smaller is tighter. Replicates are averaged; those with no signal do not enter the mean. A pair that was not seen in any replicate is written "no signal"; this usually means weak binding, but a binder can also be missed. Entries are sorted by rising average, undetected variants last. Empty control strains, which show no peptide, gave a signal in 28% of pairings with library AAYL52; the median was 3.91 and 95% of these signals were weaker than 2.90. No background was subtracted.

With EGDSLRYNYAN | GHNNRPS | YSRDSSGFQVF the result was 1.11 (3 of 3 replicates).
With EGISLRYYYAN | GDNNRPS | SSRDSSGFQVE the result was 1.68 (3 of 3 replicates).
With EGDSLRYYYAN | GSNLRMS | SSRDSSGFQVF the result was 1.97 (3 of 3 replicates).
With EGDNLRYYPAN | GLNNRPS | SSRDSSGFQVF the result was 2.00 (3 of 3 replicates).
With EGDSLRYYYAN | GENNRMS | SSRDSSGFQWF the result was 2.25 (3 of 3 replicates).
With EGDSTQYYYAN | GNNNRPS | SSRDSSGFQVF the result was 2.45 (3 of 3 replicates).
With EGDSLRYYYAN | GSNMRPS | HSRDSSGFQVF the result was 2.72 (1 of 3 replicates).
With EGDSLRYYYAN | GNNFRPS | SSRDSSGFQVF the result was 2.73 (3 of 3 replicates).
With EGDSLRYYYAN | GINNRPS | SSRDSSGFQVF the result was 2.82 (3 of 3 replicates).
With EGDSLRYYYAN | GLNNRPS | SSRDTSGFQVF the result was 2.89 (3 of 3 replicates).
With EGDSLRRYYAN | GVNNRPS | SSRDSSGFQVY the result was 2.99 (3 of 3 replicates).
With CGDSLRYYYAN | GPNNRPS | SSRGSSGFQVF the result was 3.00 (3 of 3 replicates).
With EGDSLRYYYAN | GMNNRPS | SSRDLSGQQVF the result was 3.01 (3 of 3 replicates).
With EGDSLIYYRAN | GRNNRPS | SSRDSSGFQVF the result was 3.14 (3 of 3 replicates).
With EGDSLRYYYAN | GSNNRPS | SSRDSSGFQWF the result was 3.25 (3 of 3 replicates).
With EGDSLRYYYAN | GQNNRPF | SERDSSGFQVF the result was 3.27 (2 of 3 replicates).
With EGDSLRYYYAN | GSNNRPS | SSRDSIGVQVF the result was 3.34 (3 of 3 replicates).
With EGDSLRYYYAN | GTNNRPS | SSRDSLGFQVF the result was 3.46 (2 of 3 replicates).
With EGDSLRYYYAN | GVNNRPS | ISRDSSGFQVF the result was 3.47 (2 of 3 replicates).
With EGDSLRYYYAN | RFNNRPS | SSRVSSGFQVF the result was 3.69 (1 of 3 replicates).
With EGDSPRYYYAN | ASNNRPS | SSRDSSGFQVF the result was 3.79 (2 of 3 replicates).
With EGKSLRYYYHN | GTNNRPS | SSRDSSGFQVF the result was 3.82 (3 of 3 replicates).
With EGDSLRYYYAN | GQWNRPS | HSRDSSGFQVF the result was 4.04 (2 of 3 replicates).
With EGWSGRYYYAN | GCNNRPS | SSRDSSGFQVF the result was 4.06 (3 of 3 replicates).
With EGDSLRYYYAN | VVNNRPS | SSRDSSGFQVF the result was 4.09 (2 of 3 replicates).
With EGDSLRYYYAN | GENNDPS | SLRDSSGFQVF the result was 4.27 (2 of 3 replicates).
With ECDSLRYYYAN | GTNNRPS | SSRDSKGFQVF the result was 4.27 (3 of 3 replicates).
With EGDSLRLYYAN | GDNNRPS | SSRDSSGFQFF the result was 4.34 (3 of 3 replicates).
With EGDSLFYYYAN | GWNNRPS | SSRDYSGFQVF the result was 4.46 (1 of 3 replicates).
With EGDSLRYYYAN | GSNNRPS | SSRDISGFLVF the result was 4.49 (2 of 3 replicates).
With EGDSLRYYYAN | GMTNRPS | SSRDGSGFQVF the result was 4.56 (1 of 3 replicates).
With EGDSLRYYYAN | GINNRHS | SSRDSSGAQVF the result was 4.72 (2 of 3 replicates).
With EGDNLRYYYAN | GFNNRPS | SMRDSSGFQVF the result was 5.03 (2 of 3 replicates).
With EGDSLKYYYAN | VTNNRPS | SSRDSSGFQVF the result was 5.03 (1 of 3 replicates).
With RGDSLRYYYAN | VSNNRPS | SSRDSSGFQVF the result was 5.28 (1 of 3 replicates).
With EGDSLRYYMAN | GLNNRPS | SSNDSSGFQVF the result was no signal (0 of 3 replicates).
With EGDSLRYYYYN | GANNRPS | SSRDSSGFQVF the result was no signal (0 of 3 replicates).
With EGDSLRYYYCN | GTNNRPS | SYRDSSGFQVF the result was no signal (0 of 3 replicates).
With EGDSLRYYYAN | WFHNRPS | SSRDSSGFQVF the result was no signal (0 of 3 replicates).
With EGDSLRYYYAN | GDNNRPS | SSRDDSEFQVF the result was no signal (0 of 3 replicates).

Repeated from above, the 4 best binders with a signal in all replicates:

Variant EGDSLRYNYAN | GHNNRPS | YSRDSSGFQVF gave 1.11 (3 of 3 replicates).
Variant EGISLRYYYAN | GDNNRPS | SSRDSSGFQVE gave 1.68 (3 of 3 replicates).
Variant EGDSLRYYYAN | GSNLRMS | SSRDSSGFQVF gave 1.97 (3 of 3 replicates).
Variant EGDNLRYYPAN | GLNNRPS | SSRDSSGFQVF gave 2.00 (3 of 3 replicates).

Parent in this assay: reference entry 2.31, copy in this library 2.25.